# Experimental data: patent US20260384438A1, “PYRROLOPYRIMIDINE CARBOXAMIDES” (published 2026)
# Chains of the proteins cited; added tags and fusions are not shown. Residues count along the entry.
# UniProt P30291, whole entry: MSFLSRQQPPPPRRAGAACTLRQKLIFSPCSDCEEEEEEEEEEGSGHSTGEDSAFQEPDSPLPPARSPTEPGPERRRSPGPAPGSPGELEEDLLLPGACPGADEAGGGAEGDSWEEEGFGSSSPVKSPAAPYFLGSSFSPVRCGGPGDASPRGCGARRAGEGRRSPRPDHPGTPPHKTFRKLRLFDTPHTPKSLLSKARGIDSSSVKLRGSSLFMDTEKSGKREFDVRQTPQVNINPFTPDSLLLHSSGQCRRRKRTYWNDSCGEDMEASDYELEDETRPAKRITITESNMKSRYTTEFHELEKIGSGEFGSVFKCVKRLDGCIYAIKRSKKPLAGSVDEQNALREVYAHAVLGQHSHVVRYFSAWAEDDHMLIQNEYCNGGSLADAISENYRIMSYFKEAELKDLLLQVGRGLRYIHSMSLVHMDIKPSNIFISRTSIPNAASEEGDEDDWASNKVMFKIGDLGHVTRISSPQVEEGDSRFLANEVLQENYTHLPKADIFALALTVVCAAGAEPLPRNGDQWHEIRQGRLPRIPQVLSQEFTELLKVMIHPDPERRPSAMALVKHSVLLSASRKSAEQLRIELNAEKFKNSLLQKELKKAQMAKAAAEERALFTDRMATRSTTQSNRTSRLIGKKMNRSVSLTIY
# UniProt P36896, 24-505 limits assumed: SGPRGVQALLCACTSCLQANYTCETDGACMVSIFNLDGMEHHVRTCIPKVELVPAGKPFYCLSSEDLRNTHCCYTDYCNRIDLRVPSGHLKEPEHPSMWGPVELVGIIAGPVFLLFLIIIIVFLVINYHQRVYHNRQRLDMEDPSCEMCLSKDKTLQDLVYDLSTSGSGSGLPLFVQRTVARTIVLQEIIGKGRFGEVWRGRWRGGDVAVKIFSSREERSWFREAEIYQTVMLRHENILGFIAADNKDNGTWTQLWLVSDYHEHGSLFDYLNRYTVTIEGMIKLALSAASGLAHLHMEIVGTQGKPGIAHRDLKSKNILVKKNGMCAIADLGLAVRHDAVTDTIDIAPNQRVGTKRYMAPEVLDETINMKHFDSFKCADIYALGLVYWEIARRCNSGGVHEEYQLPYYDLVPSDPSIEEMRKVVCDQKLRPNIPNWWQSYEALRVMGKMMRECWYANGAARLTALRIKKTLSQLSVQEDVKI
# UniProt P11362, 22-822 limits assumed: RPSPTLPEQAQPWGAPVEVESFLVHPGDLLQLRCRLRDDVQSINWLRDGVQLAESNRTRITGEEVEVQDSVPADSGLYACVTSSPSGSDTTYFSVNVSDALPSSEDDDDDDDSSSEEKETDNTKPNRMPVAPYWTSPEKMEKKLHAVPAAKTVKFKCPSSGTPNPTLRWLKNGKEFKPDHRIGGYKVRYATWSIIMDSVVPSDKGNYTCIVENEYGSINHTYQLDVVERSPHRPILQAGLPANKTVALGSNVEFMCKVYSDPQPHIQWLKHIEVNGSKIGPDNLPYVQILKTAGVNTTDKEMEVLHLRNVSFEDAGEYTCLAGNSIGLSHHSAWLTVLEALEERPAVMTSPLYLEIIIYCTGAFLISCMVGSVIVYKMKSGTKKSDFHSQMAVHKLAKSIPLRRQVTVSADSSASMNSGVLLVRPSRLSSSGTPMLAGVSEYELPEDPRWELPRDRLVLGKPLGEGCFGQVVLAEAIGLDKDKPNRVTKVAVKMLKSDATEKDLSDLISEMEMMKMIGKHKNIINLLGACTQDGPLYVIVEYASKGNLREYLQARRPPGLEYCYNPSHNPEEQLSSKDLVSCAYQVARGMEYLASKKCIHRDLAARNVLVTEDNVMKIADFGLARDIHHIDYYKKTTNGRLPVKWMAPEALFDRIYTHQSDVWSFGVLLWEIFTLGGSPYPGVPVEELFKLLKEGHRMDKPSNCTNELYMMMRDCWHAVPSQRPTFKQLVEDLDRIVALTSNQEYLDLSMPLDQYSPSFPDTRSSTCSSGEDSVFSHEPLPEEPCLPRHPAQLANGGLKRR
# UniProt P10721, 26-976 limits assumed: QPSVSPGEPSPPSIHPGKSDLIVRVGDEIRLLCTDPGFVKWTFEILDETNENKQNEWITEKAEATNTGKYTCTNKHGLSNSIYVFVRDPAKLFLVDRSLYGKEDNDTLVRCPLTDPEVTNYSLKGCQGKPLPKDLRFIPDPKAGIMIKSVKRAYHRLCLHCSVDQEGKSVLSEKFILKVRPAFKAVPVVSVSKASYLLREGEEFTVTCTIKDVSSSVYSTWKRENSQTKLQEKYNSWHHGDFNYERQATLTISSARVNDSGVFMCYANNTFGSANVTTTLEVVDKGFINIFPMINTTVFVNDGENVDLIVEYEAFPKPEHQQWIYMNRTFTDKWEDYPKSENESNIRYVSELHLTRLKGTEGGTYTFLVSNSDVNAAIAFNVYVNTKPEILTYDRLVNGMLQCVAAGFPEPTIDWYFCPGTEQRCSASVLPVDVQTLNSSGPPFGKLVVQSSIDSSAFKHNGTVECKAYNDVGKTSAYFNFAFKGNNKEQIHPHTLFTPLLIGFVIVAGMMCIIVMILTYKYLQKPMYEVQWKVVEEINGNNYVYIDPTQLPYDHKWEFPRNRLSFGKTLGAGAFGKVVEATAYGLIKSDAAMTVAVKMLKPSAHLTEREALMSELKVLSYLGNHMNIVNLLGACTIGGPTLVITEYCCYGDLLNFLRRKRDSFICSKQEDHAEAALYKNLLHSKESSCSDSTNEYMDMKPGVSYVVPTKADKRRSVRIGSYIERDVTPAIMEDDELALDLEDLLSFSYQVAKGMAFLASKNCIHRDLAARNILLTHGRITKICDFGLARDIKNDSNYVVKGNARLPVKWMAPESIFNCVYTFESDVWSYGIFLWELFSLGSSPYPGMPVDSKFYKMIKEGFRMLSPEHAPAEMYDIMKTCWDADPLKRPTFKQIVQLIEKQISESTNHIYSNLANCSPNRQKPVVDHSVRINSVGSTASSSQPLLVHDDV
# UniProt Q02763, 770-1124 limits assumed: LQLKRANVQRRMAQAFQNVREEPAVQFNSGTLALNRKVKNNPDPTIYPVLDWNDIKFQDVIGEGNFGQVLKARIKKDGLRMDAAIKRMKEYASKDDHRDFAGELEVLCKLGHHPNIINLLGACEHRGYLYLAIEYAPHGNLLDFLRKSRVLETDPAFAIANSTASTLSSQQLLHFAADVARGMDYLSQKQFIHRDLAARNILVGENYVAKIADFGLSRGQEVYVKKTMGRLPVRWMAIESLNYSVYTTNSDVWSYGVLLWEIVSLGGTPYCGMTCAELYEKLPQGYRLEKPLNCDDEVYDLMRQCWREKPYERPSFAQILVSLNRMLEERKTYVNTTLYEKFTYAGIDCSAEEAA
# UniProt O14965, whole entry: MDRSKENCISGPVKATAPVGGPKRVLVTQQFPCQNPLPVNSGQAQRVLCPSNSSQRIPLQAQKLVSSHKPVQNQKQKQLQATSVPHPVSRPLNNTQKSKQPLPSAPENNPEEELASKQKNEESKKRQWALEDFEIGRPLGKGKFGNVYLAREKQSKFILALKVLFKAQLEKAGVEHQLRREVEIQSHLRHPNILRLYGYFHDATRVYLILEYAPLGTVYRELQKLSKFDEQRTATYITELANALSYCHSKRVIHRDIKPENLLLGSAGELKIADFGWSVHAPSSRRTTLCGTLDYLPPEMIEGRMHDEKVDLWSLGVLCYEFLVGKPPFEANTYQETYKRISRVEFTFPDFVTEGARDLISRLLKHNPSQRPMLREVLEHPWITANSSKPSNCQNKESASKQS
# UniProt P25774, 115-331 limits assumed: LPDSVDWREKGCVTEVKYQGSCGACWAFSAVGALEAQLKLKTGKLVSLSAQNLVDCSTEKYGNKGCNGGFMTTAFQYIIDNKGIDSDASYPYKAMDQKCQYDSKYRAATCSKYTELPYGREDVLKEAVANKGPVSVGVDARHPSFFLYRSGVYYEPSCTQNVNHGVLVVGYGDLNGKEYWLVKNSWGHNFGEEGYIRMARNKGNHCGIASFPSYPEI
# UniProt P35968, 20-1356 limits assumed: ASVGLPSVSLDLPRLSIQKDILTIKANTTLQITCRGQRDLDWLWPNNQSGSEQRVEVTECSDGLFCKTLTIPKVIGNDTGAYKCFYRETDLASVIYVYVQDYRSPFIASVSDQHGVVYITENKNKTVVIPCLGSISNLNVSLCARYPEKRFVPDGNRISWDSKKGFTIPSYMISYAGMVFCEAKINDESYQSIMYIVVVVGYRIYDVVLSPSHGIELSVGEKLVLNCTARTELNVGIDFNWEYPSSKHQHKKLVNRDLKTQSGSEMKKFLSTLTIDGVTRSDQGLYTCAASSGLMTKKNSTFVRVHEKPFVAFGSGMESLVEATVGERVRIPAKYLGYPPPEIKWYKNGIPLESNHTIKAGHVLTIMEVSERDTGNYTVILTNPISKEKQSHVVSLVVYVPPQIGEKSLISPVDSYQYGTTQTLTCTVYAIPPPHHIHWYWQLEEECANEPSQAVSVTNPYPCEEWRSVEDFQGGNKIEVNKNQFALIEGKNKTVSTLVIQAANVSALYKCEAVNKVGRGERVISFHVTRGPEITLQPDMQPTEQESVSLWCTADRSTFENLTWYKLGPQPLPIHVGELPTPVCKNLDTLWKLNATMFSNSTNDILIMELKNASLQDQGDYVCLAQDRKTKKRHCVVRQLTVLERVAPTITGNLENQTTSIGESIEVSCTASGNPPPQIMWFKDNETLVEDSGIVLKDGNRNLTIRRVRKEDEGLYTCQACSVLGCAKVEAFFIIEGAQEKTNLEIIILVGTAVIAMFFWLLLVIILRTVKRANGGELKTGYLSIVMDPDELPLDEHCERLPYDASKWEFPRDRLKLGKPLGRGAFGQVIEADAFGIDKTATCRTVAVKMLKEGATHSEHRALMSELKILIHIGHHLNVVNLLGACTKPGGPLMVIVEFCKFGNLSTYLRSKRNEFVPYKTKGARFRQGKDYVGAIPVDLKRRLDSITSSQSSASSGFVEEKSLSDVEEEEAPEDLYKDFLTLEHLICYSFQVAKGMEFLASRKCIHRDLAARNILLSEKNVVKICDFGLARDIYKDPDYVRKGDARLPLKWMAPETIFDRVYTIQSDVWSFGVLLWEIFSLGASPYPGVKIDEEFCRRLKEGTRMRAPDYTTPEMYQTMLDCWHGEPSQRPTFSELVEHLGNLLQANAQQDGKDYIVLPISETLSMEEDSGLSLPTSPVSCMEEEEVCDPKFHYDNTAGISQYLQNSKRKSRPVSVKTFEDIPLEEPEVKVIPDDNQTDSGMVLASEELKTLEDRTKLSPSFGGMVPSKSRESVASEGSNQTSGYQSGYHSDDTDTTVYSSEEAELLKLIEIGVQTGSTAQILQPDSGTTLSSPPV
# UniProt O75116, whole entry: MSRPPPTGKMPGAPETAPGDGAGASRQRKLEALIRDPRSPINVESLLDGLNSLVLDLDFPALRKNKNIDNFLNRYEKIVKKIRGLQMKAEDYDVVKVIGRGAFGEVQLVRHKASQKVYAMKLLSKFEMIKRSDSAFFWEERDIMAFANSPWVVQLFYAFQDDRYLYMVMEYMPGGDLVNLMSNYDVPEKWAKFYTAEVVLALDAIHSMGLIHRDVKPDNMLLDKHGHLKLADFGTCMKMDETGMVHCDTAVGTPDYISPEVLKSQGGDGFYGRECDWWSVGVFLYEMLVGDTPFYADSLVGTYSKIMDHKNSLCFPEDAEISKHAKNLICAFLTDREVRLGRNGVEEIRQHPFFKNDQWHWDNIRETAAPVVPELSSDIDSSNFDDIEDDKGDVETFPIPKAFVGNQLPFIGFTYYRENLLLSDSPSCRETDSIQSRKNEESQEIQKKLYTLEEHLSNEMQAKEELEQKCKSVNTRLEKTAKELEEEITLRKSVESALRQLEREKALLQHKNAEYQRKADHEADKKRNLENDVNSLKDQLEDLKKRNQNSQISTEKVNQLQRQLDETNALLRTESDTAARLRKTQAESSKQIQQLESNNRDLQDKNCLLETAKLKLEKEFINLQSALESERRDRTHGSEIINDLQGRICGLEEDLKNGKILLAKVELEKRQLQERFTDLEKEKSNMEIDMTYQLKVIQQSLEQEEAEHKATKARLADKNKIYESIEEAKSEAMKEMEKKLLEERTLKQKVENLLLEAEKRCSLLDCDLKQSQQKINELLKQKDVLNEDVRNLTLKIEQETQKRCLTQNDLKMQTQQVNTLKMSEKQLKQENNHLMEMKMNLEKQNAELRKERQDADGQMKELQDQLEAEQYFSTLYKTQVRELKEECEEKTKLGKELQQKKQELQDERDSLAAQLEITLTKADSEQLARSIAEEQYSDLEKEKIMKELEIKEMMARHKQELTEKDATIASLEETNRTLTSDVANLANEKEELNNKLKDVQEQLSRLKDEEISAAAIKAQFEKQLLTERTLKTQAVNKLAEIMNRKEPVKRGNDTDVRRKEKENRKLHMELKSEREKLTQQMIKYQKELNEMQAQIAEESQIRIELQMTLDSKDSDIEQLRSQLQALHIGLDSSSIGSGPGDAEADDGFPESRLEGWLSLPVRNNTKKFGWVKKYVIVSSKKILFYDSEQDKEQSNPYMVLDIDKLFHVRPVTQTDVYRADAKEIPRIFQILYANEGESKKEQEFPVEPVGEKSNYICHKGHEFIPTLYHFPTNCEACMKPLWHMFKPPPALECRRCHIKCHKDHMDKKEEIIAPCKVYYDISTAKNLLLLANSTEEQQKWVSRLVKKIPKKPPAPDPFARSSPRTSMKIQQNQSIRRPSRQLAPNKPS
# Assays:
# WEE1 = WEE1 (Homo sapiens, UniProt P30291); assay: NanoBRET target engagement in HEK293T cells, WEE1; conditions: read-out: WEE1 INHIBITION IC50, 2 h
# CYP1A2 = CYP1A2 (Homo sapiens, UniProt P05177); assay: CYP time dependent inhibition, CYP1A2; conditions: 10 μM, 30 min preincubation, HLM
# ACVR1B (ALK4) = ACVR1B (ALK4) (Homo sapiens, UniProt P36896); assay: Kinase profiling, Z-Lyte *Mn*
# EGFR (ErbB1) = EGFR (ErbB1) (Homo sapiens, UniProt P00533); assay: Kinase profiling, Z-Lyte *Mn*; conditions: 1 μM, KmATP
# FGFR1 = FGFR1 (Homo sapiens, UniProt P11362); assay: Kinase profiling, Z-Lyte *Mn*; conditions: 1 μM, KmATP
# INSR = INSR (Homo sapiens, UniProt P06213); assay: Kinase profiling, Z-Lyte *Mn*; conditions: 1 μM, KmATP
# KIT = KIT (Homo sapiens, UniProt P10721); assay: Kinase profiling, Z-Lyte *Mn*; conditions: 1 μM, KmATP
# NTRK2 (TRKB) = NTRK2 (TRKB) (Homo sapiens, UniProt Q16620); assay: Kinase profiling, Z-Lyte *Mn*; conditions: 1 μM, KmATP
# PDGFRA = PDGFRA (Homo sapiens, UniProt P16234); assay: Kinase profiling, Z-Lyte *Mn*; conditions: 1 μM, KmATP
# TEK (Tie2) = TEK (Tie2) (Homo sapiens, UniProt Q02763); assay: Kinase profiling, Z-Lyte *Mn*; conditions: 1 μM, KmATP
# ALK4 Kinase = ALK4 Kinase (Homo sapiens, UniProt P36896); assay: Secondary pharmacology, enzyme
# Aurora A kinase = Aurora A kinase (Homo sapiens, UniProt O14965); assay: Secondary pharmacology, enzyme
# Cathepsin S = Cathepsin S (Homo sapiens, UniProt P25774); assay: Secondary pharmacology, enzyme
# [1] = target: Epidermal growth factor receptor kinase (EGFR kinase) (Homo sapiens, UniProt P00533); assay: Secondary pharmacology, enzyme
# [2] = target: Glycogen synthase kinase-3 β (Homo sapiens, UniProt P49841); assay: Secondary pharmacology, enzyme
# Histone deacetylase 5 = Histone deacetylase 5 (Homo sapiens, UniProt Q9UQL6); assay: Secondary pharmacology, enzyme
# [3] = target: Kinase insert domain receptor kinase (KDR) (Homo sapiens, UniProt P35968); assay: Secondary pharmacology, enzyme
# [4] = target: Lymphocyte-specific protein tyrosine kinase (Homo sapiens, UniProt P06239); assay: Secondary pharmacology, enzyme
# [5] = target: Mitogen activated protein kinase kinase kinase 7 (MAPKKK7) (Homo sapiens, UniProt O43318); assay: Secondary pharmacology, enzyme
# Na+/K+ ATPase = assay: Secondary pharmacology, enzyme
# [6] = target: Neurotrophic receptor kinase 1 (NTRK1) (Homo sapiens, UniProt P04629); assay: Secondary pharmacology, enzyme
# [7] = target: Phosphodiesterase PDE10A2 (Homo sapiens, UniProt Q9Y233); assay: Secondary pharmacology, enzyme
# Phosphodiesterase PDE3 = assay: Secondary pharmacology, enzyme
# Phosphodiesterase PDE4D2 = Phosphodiesterase PDE4D2 (Homo sapiens, UniProt Q08499); assay: Secondary pharmacology, enzyme
# Phosphodiesterase PDE6 = Phosphodiesterase PDE6 (Bos taurus, UniProt P11541+P23439); assay: Secondary pharmacology, enzyme
# [8] = target: Prostaglandin-endoperoxide synthase 1 (COX1) (Homo sapiens, UniProt P23219); assay: Secondary pharmacology, enzyme
# [9] = target: Rho Associated, Coiled Coil Containing Protein Kinase 1 (ROCK1) (Homo sapiens, UniProt Q13464); assay: Secondary pharmacology, enzyme
# [10] = target: Rho Associated, Coiled Coil Containing Protein Kinase 2 (ROCK2) (Homo sapiens, UniProt O75116); assay: Secondary pharmacology, enzyme
# Thromboxane A2 synthase = Thromboxane A2 synthase (Homo sapiens, UniProt P24557); assay: Secondary pharmacology, enzyme
# V-src sarcoma Kinase = V-src sarcoma Kinase (Homo sapiens, UniProt P12931); assay: Secondary pharmacology, enzyme
# c-kit kinase = c-kit kinase (Homo sapiens, UniProt P10721); assay: Secondary pharmacology, enzyme
# [11] = target: CDK1 pThr14 (PKMYT1 substrate), FUOV-1 cells (Homo sapiens, UniProt Q99640); assay: Functional CDK1 pThr14 AlphaLISA assay in FUOV-1 cells; conditions: read-out: pCDk1(Thr14) INHIBITION IC50, 2 h
smiles,measurement,setting,value
"Cc1nc(C(F)(F)F)c2c(C(N)=O)c(N)n(-c3c(C)ccc(O)c3C)c2n1 (single isomer, unassigned)",IC50,WEE1,> 9.97 µM
same,"% time dependent inhibition (TDI), CYP1A2",CYP1A2,less than 20%
same,MEAN INHIBITION,"ACVR1B (ALK4); 1 μM, KmATP",16.559%
same,IC50,"ACVR1B (ALK4); 10-point CR, ATP 5.000 μM",2.01 µM
same,MEAN INHIBITION,EGFR (ErbB1),−1.842%
same,MEAN INHIBITION,FGFR1,23.959%
same,MEAN INHIBITION,INSR,5.030%
same,MEAN INHIBITION,KIT,−0.129%
same,MEAN INHIBITION,NTRK2 (TRKB),11.914%
same,MEAN INHIBITION,PDGFRA,−15.943%
same,MEAN INHIBITION,TEK (Tie2),6.545%
same,Pharmacological mode of action,ALK4 Kinase,Inhibitor
same,IC50,ALK4 Kinase; read-out: Enzyme IC50,0.19 µM
same,Pharmacological mode of action,Aurora A kinase,Inactive
same,IC50,Aurora A kinase; read-out: Enzyme IC50,> 100 µM
same,Pharmacological mode of action,Cathepsin S,Inactive
same,IC50,Cathepsin S; read-out: Enzyme IC50,> 10 µM
same,Pharmacological mode of action,[1],Inactive
same,IC50,[1]; read-out: Enzyme IC50,> 100 µM
same,Pharmacological mode of action,[2],Inhibitor
same,IC50,[2]; read-out: Enzyme IC50,1.1 µM
same,Pharmacological mode of action,Histone deacetylase 5,Inactive
same,IC50,Histone deacetylase 5; read-out: Enzyme IC50,> 10 µM
same,Pharmacological mode of action,[3],Inhibitor
same,IC50,[3]; read-out: Enzyme IC50,78 µM
same,Pharmacological mode of action,[4],Inhibitor
same,IC50,[4]; read-out: Enzyme IC50,53 µM
same,Pharmacological mode of action,[5],Inactive
same,IC50,[5]; read-out: Enzyme IC50,> 100 µM
same,Pharmacological mode of action,Na+/K+ ATPase,Inactive
same,IC50,Na+/K+ ATPase; read-out: Enzyme IC50,> 100 µM
same,Pharmacological mode of action,[6],Inactive
same,IC50,[6]; read-out: Enzyme IC50,> 100 µM
same,Pharmacological mode of action,[7],Inactive
same,IC50,[7]; read-out: Enzyme IC50,> 100 µM
same,Pharmacological mode of action,Phosphodiesterase PDE3,Inactive
same,IC50,Phosphodiesterase PDE3; read-out: Enzyme IC50,> 100 µM
same,Pharmacological mode of action,Phosphodiesterase PDE4D2,Inactive
same,IC50,Phosphodiesterase PDE4D2; read-out: Enzyme IC50,> 100 µM
same,Pharmacological mode of action,Phosphodiesterase PDE6,Inactive
same,IC50,Phosphodiesterase PDE6; read-out: Enzyme IC50,> 100 µM
same,Pharmacological mode of action,[8],Inactive
same,IC50,[8]; read-out: Enzyme IC50,> 100 µM
same,Pharmacological mode of action,[9],Inactive
same,IC50,[9]; read-out: Enzyme IC50,> 100 µM
same,Pharmacological mode of action,[10],Inactive
same,IC50,[10]; read-out: Enzyme IC50,> 100 µM
same,Pharmacological mode of action,Thromboxane A2 synthase,Inhibitor
same,IC50,Thromboxane A2 synthase; read-out: Enzyme IC50,90 µM
same,Pharmacological mode of action,V-src sarcoma Kinase,Inhibitor
same,IC50,V-src sarcoma Kinase; read-out: Enzyme IC50,0.15 µM
same,Pharmacological mode of action,c-kit kinase,Inhibitor
same,IC50,c-kit kinase; read-out: Enzyme IC50,32 µM
same,IC50,[11],0.04 µM
